# Experimental data reported in US10400022B2, “Neuropilin-1 specific binding peptide, fusion protein fused with same, and use thereof” (AJOU UNIVERSITY INDUSTRY-ACADEMIC COOPERATION FOUNDATION, priority 2015, dated 2019).
# Tested on: FaDu cells
# Experiment: Immunohistochemistry of tumor tissue penetration of Cetuximab-TPP11
# Format: in vivo, Balb/c nude mice
# Details: 1.25 mg/kg intravenously, 3 hours after injection
# Protocol: At 3 hours after injection, the tumor was extracted from the mice and subjected to immunohistochemistry. The tissue was stained and observed in the same manner as described in Example 6.
substance,measurement,value
Cetuximab: anti-EGFR antibody for treatment of solid tumors,tumor tissue penetration,green fluorescence was observed around the blood vessels
